# Target: human μ-opiate receptor (Homo sapiens, UniProt P35372)
# By UniProt entry, the sequences of proteins in these tests, tags left out. Where a name states a change or a piece, a line headed by the entry shows the natural chain unless it says otherwise.
# UniProt P35372, whole entry, looked up: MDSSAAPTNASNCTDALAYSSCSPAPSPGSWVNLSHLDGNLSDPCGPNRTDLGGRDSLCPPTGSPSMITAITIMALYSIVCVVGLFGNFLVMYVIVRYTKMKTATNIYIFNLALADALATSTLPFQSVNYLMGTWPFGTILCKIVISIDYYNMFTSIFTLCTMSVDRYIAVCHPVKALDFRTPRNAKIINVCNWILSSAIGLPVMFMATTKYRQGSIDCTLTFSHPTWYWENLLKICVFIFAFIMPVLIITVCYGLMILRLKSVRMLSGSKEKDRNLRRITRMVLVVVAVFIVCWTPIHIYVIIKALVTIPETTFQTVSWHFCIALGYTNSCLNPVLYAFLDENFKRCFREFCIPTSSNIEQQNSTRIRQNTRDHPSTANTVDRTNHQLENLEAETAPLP
# UniProt P41146: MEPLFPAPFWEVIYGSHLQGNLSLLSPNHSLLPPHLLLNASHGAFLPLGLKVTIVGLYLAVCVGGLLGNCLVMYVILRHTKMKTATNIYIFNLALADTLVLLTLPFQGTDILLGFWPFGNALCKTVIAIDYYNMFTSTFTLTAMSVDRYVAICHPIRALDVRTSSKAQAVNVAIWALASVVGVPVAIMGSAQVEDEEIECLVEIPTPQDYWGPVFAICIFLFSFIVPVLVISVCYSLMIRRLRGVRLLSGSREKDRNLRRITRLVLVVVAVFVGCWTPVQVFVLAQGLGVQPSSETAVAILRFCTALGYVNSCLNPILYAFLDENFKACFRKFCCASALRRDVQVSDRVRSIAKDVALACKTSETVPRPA
# Assay: Measurement of μ binding ([3H]-naloxone displacement, CHO-K1 membrane preparation)
# Conditions: test substance 1 μM; displacement of [3H]-naloxone 1 nmol/l
row,Compound,"μ-Opiate receptor [1 μM], % inhibition [%]"
1,CN(C)C1(c2cccc(F)c2)CCC(NC(=O)CCNC(=O)OC(C)(C)C)CC1 (stereo not shown),97
2,{[1-(4-Dimethylamino-4-phenethyl-cyclohexylcarbamoyl)-3-methyl-butylcarbamoyl]-methyl}-carbamic acidbenzyl ester,69
3,CN(C)C1(Cc2ccccc2F)CCC(NC(=O)C(Cc2ccccc2)NC(=O)OC(C)(C)C)CC1 (stereo not shown),73
4,N-[4-(2-Chloro-benzyl)-4-dimethylamino-cyclohexyl]-3-phenyl-2-(tolyl-4-sulfonylamino)-propionamide,64
5,CC(C)CC(NC(=O)c1ccccc1)C(=O)NC1CCC(Cc2ccc(F)cc2)(N(C)C)CC1 (stereo not shown),76
6,CCCCC(NC(C)=O)C(=O)NC1CCC(Cc2ccccc2Cl)(N(C)C)CC1 (stereo not shown),65
7,Cc1ccc(CC2(N(C)C)CCC(NC(=O)CCCCCNC(=O)OCc3ccccc3)CC2)cc1 (stereo not shown),44
8,CC(C)CC(NC(=O)CNC(=O)OCc1ccccc1)C(=O)NC1CCC(c2ccccc2)(N2CCCCC2)CC1 (stereo not shown),43
9,CN(C)C1(Cc2ccccc2)CCC(NC(=O)C(Cc2ccccc2)NC(=O)OC(C)(C)C)CC1 (stereo not shown),52
10,Cc1cccc(CC2(N(C)C)CCC(NC(=O)C(C)NC(=O)OCc3ccccc3)CC2)c1 (stereo not shown),47
11,Cc1ccccc1CC1(N(C)C)CCC(NC(=O)C(Cc2ccccc2)NC(=O)OC(C)(C)C)CC1 (stereo not shown),59
12,{[1-(4-Dimethylamino-4-thiophen-2-yl-cyclohexylcarbamoyl)-3-methyl-butylcarbamoyl]-methyl}-carbamic acidbenzyl ester,97
13,Cc1ccccc1CC1(N(C)C)CCC(NC(=O)C(C)NC(=O)OCc2ccccc2)CC1 (stereo not shown),61
14,Cc1cccc(CC2(N(C)C)CCC(NC(=O)C(Cc3ccccc3)NC(=O)OC(C)(C)C)CC2)c1 (stereo not shown),62
15,Cc1cccc(CC2(N(C)C)CCC(NC(=O)C(CO)NC(=O)OC(C)(C)C)CC2)c1 (stereo not shown),56
16,CN(C)C1(Cc2cccc(F)c2)CCC(NC(=O)C(Cc2ccccc2)NC(=O)OC(C)(C)C)CC1 (stereo not shown),52
17,Cc1ccccc1CC1(N(C)C)CCC(NC(=O)C(NC(=O)OCC2c3ccccc3-c3ccccc32)C(C)C)CC1 (stereo not shown),46
18,CC(NC(=O)OCc1ccccc1)C(=O)NC1CCC(Cc2ccccc2Cl)(N(C)C)CC1 (stereo not shown),82
19,N-(4-Dimethylamino-4-pyridin-2-yl-cyclohexyl)-3-phenyl-2-(tolyl-4-sulfonylamino)-propionamide,95
20,Cc1ccc(CC2(N(C)C)CCC(NC(=O)C(CO)NC(=O)OC(C)(C)C)CC2)cc1 (stereo not shown),42
21,CC(NC(=O)OCc1ccccc1)C(=O)NC1CCC(Cc2ccccc2)(N(C)C)CC1 (stereo not shown),41
22,Cc1ccccc1CC1(N(C)C)CCC(NC(=O)C(Cc2ccccc2)NC(=O)OCc2ccccc2)CC1 (stereo not shown),78
23,CC(NC(=O)OCc1ccccc1)C(=O)NC1CCC(c2cccs2)(N(C)C)CC1 (stereo not shown),96
24,O=C(NC(C(=O)NC1CCC(Cc2ccccc2)(N2CCCCCC2)CC1)c1ccccc1)OCc1ccccc1 (stereo not shown),84

row,Compound,"μ-Opiate receptor [1 μM], % inhibition [%]"
1,CC(C)C(NC(=O)OCC1c2ccccc2-c2ccccc21)C(=O)NC1CCC(Cc2ccc(F)cc2)(N(C)C)CC1 (stereo not shown),48
2,Cc1ccc(CC2(N(C)C)CCC(NC(=O)C(C)NC(=O)OCc3ccccc3)CC2)cc1 (stereo not shown),41
3,N-(4-Dimethylamino-4-thiophen-2-yl-cyclohexyl)-3-phenyl-2-(tolyl-4-sulfonylamino)-propionamide,96
4,CC(C)CC(NC(=O)CNC(=O)OCc1ccccc1)C(=O)NC1CCC(Cc2cccc(Cl)c2)(N(C)C)CC1 (stereo not shown),59
5,CN(C)C1(Cc2ccccc2Cl)CCC(NC(=O)C(NC(=O)OCc2ccccc2)c2ccccc2)CC1 (stereo not shown),82
6,CC(C)CC(NC(=O)CNC(=O)OCc1ccccc1)C(=O)NC1CCC(Cc2ccc(Cl)cc2)(N(C)C)CC1 (stereo not shown),52
7,Cc1ccccc1CC1(N(C)C)CCC(NC(=O)C(C)(C)Oc2ccc(CCNC(=O)c3ccc(Cl)cc3)cc2)CC1 (stereo not shown),53
8,({1-[4-Dimethylamino-4-(3-fluoro-benzyl)-cyclohexylcarbamoyl]-3-methyl-butylcarbamoyl}-methyl)-carbamic acidbenzyl ester,71
9,({1-[4-Dimethylamino-4-(2-fluoro-benzyl)-cyclohexylcarbamoyl]-3-methyl-butylcarbamoyl}-methyl)-carbamic acidbenzyl ester,78
10,CN(C)C1(Cc2cccc(Cl)c2)CCC(NC(=O)C(CO)NC(=O)OC(C)(C)C)CC1 (stereo not shown),54
11,N-[4-Dimethylammino-4-(2-methyl-benzyl)-cyclohexyl]-3-phenyl-2-(tolyl-4-sulfonylamino)-propionamide,53
12,Cc1ccccc1CC1(N(C)C)CCC(NC(=O)C(NC(=O)OCc2ccccc2)c2ccccc2)CC1 (stereo not shown),86
13,CC(NC(=O)OCc1ccccc1)C(=O)NC1CCC(Cc2cccc(Cl)c2)(N(C)C)CC1 (stereo not shown),46
14,({1-[4-Dimethylamino-4-(3-methyl-benzyl)-cyclohexylcarbamoyl]-3-methyl-butylcarbamoyl}-methyl)-carbamic acidbenzyl ester,71
15,{[1-(4-Benzyl-4-dimethylamino-cyclohexylcarbamoyl)-3-methyl-butylcarbamoyl]-methyl}-carbamic acidbenzyl ester,79
16,({1-[4-Dimethylamino-4-(4-methyl-benzyl)-cyclohexylcarbamoyl]-3-methyl-butylcarbamoyl}-methyl)-carbamic acidbenzyl ester,58
17,CN(C)C1(Cc2ccccc2Cl)CCC(NC(=O)C(Cc2ccccc2)NC(=O)OC(C)(C)C)CC1 (stereo not shown),73
18,CC(C)CC(NC(=O)CNC(=O)OCc1ccccc1)C(=O)NC1CCC(Cc2ccccc2)(N2CCCCC2)CC1 (stereo not shown),46
19,({1-[4-Dimethylamino-4-(2-methyl-benzyl)-cyclohexylcarbamoyl]-3-methyl-butylcarbamoyl}-methyl)-carbamic acidbenzyl ester,62
20,CC(NC(=O)OCc1ccccc1)C(=O)NC1CCC(CCc2ccccc2)(N(C)C)CC1 (stereo not shown),56
21,CN(C)C1(Cc2ccccc2)CCC(NC(=O)CCCCCNC(=O)OCc2ccccc2)CC1 (stereo not shown),54
22,{[1-(4-Dimethylamino-4-phenyl-cyclohexylcarbamoyl)-3-methyl-butylcarbamoyl]-methyl}-carbamic acidbenzyl ester,95
23,3-tert.-Butoxycarbonylamino-N-[4-(2-chloro-benzyl)-4-dimethylamino-cyclohexyl]-sucinic acid cyclohexylester,63
24,({1-[4-Dimethylamino-4-(3-fluoro-phenyl)-cyclohexylcarbamoyl]-3-methyl-butylcarbamoyl}-methyl)-carbamic acidbenzyl ester,101

# Target: ORL1 receptor (Homo sapiens, UniProt P41146)
# Assay: Measurement of ORL1 binding (3H-nociceptin/orphanin FQ, membranes of recombinant CHO-ORL1 cells)
# Conditions: c=1 μM; 3H-nociceptin/orphanin FQ 0.5 nM
row,Compound,"ORL-1 receptor [1 μM], % inhibition [%]"
1,CN(C)C1(c2cccc(F)c2)CCC(NC(=O)CCNC(=O)OC(C)(C)C)CC1 (stereo not shown),66
2,{[1-(4-Dimethylamino-4-thiophen-2-yl-cyclohexylcarbamoyl)-3-methyl-butylcarbamoyl]-methyl}-carbamic acidbenzyl ester,89
3,N-(4-Dimethylamino-4-pyridin-2-yl-cyclohexyl)-3-phenyl-2-(tolyl-4-sulfonylamino)-propionamide,59
4,CC(NC(=O)OCc1ccccc1)C(=O)NC1CCC(c2cccs2)(N(C)C)CC1 (stereo not shown),54
5,N-(4-Dimethylamino-4-thiophen-2-yl-cyclohexyl)-3-phenyl-2-(tolyl-4-sulfonylamino)-propionamide,86
6,{[1-(4-Dimethylamino-4-phenyl-cyclohexylcarbamoyl)-3-methyl-butylcarbamoyl]-methyl}-carbamic acidbenzyl ester,96
7,({1-[4-Dimethylamino-4-(3-fluoro-phenyl)-cyclohexylcarbamoyl]-3-methyl-butylcarbamoyl}-methyl)-carbamic acidbenzyl ester,98

# — patent publication US7439394B2, “Cyclohexyl-1,4-diamine compounds” (dated 2008)
